Data from patent publication US20230346796A1 (priority 2010, published 2023).

Tested on: healthy volunteers and patients undergoing a colonoscopy
Test: CNS 7056-fentanyl interaction MOAA/S pharmacodynamic analysis
[1] = CNS7056FEN08S, stimuli 1 / 2 min
[2] = CNS7056FEN09S, stimuli 1 / 2 min
[3] = CNS7056FEN12S, stimuli 1 / 2 min
[4] = CNS7056FEN13S, stimuli 1 / 2 min

COC(=O)CC[C@@H]1N=C(c2ccccn2)c2cc(Br)ccc2-n2c(C)cnc21 [CNS 7056, 3-[(4S)-8-bromo-1-methyl-6-(2-pyridinyl)-4H-imidazo[1,2-a][1,4]benzodiazepin-4-yl] propionic methyl ester]
ke0, eta IIV (RSE%) (CNS7056FEN01AS): 35.07 (18.2) % | EC50, theta (RSE%) (CNS7056FEN01AS, basic model): 0.349 (4.38) µg/ml | Hill Coefficient, theta (RSE%) (CNS7056FEN01AS, basic model): 3.9 (6.87) | ke0, theta (RSE%) (CNS7056FEN01AS, basic model): 14.8 (5.08) h^-1 | EC50, eta IIV (RSE%) (CNS7056FEN03S): 36.48 (--- ) % | Hill Coefficient, eta IIV (RSE%) (CNS7056FEN03S): 55.43 (--- ) % | Hill Coefficient, theta (RSE%) (CNS7056FEN03S): 3.88 (--- ) | ke0, eta IIV (RSE%) (CNS7056FEN03S): 35.07 (--- ) % | ke0, theta (RSE%) (CNS7056FEN03S): 15 (--- ) h^-1 | EC50, theta (RSE%) (CNS7056FEN03S, fentanyl effect added): 0.348 (--- ) µg/ml | EC50, eta IIV (RSE%) (CNS7056FEN04S): 36.48 (16.0) % | Hill Coefficient, eta IIV (RSE%) (CNS7056FEN04S): 58.80 (25.1) % | Hill Coefficient, theta (RSE%) (CNS7056FEN04S): 4.08 (7.15) | ke0, eta IIV (RSE%) (CNS7056FEN04S): 32.36 (16.7) % | ke0, theta (RSE%) (CNS7056FEN04S): 15.1 (4.78) h^-1 | EC50, theta (RSE%) (CNS7056FEN04S, scope effect, Conc.-EQ. 0.00): 0.342 (4.44) µg/ml | EC50, eta IIV (RSE%) (CNS7056FEN05S): 35.54 (15.8) % | Hill Coefficient, eta IIV (RSE%) (CNS7056FEN05S): 60.39 (25.4) % | Hill Coefficient, theta (RSE%) (CNS7056FEN05S): 4.24 (7.52) | ke0, eta IIV (RSE%) (CNS7056FEN05S): 31.39 (16.5) % | ke0, theta (RSE%) (CNS7056FEN05S): 14.4 (4.57) h^-1 | EC50, theta (RSE%) (CNS7056FEN05S, fentanyl and scope effect): 0.346 (4.30) µg/ml | Conc.-EQ. (fentanyl concentration-equivalence factor), theta (RSE%) (CNS7056FEN06S): 23.7 (30.7) | Conc.-EQ., eta IIV (RSE%) (CNS7056FEN06S): 162.2 (82.6) | EC50, eta IIV (RSE%) (CNS7056FEN06S): 35.54 (16.0) % | Hill Coefficient, eta IIV (RSE%) (CNS7056FEN06S): 61.52 (25.5) % | Hill Coefficient, theta (RSE%) (CNS7056FEN06S): 4.4 (5.97) | ke0, eta IIV (RSE%) (CNS7056FEN06S): 32.12 (16.8) % | ke0, theta (RSE%) (CNS7056FEN06S): 13.9 (4.70) h^-1 | EC50, theta (RSE%) (CNS7056FEN06S, IIV on Conc.-EQ.): 0.348 (4.39) µg/ml | EC50, eta IIV (RSE%) (CNS7056FEN07S): 35.86 (15.7) % | Hill Coefficient (γ), eta IIV (RSE%) (CNS7056FEN07S): 51.09 (22.1) % | ke0, eta IIV (RSE%) (CNS7056FEN07S): 32.43 (16.8) % | EC50, theta (RSE%) (CNS7056FEN07S, stimuli 1 min): 0.336 (4.28) µg/ml | Hill Coefficient (γ), theta (RSE%) (CNS7056FEN07S, stimuli 1 min): 4 (2.6) | ke0, theta (RSE%) (CNS7056FEN07S, stimuli 1 min): 14.2 (4.66) h^-1 | EC50, eta IIV (RSE%) (CNS7056FEN08S): 35.70 (15.8) % | Hill Coefficient (γ), eta IIV (RSE%) (CNS7056FEN08S): 47.95 (20.9) % | ke0, eta IIV (RSE%) (CNS7056FEN08S): 31.51 (16.1) % | EC50, theta (RSE%) [1]: 0.328 (4.48) µg/ml | Hill Coefficient (γ), theta (RSE%) [1]: 3.96 (6.18) | ke0, theta (RSE%) [1]: 13.7 (4.30) h^-1 | EC50, eta IIV (RSE%) (CNS7056FEN09S): 34.42 (15.9) % | Hill Coefficient (γ), eta IIV (RSE%) (CNS7056FEN09S): 52.20 (22.7) % | ke0, eta IIV (RSE%) (CNS7056FEN09S): 28.25 (15.0) % | Conc.-EQ. (fentanyl concentration-equivalence factor), theta (RSE%) [2]: 41.3 (7.21) | EC50, theta (RSE%) [2]: 0.331 (4.16) µg/ml | Hill Coefficient (γ), theta (RSE%) [2]: 4.43 (6.41) | ke0, theta (RSE%) [2]: 12.8 (4.02) h^-1 | Conc.-EQ. (fentanyl concentration-equivalence factor), theta (RSE%) (CNS7056FEN10S): 33.1 (29.2) | Conc.-EQ., eta IIV (RSE%) (CNS7056FEN10S): 184.1 (91.1) | EC50, eta IIV (RSE%) (CNS7056FEN10S): 34.74 (16.0) % | EC50, theta (RSE%) (CNS7056FEN10S): 0.333 (4.50) µg/ml | Hill Coefficient, eta IIV (RSE%) (CNS7056FEN10S): 55.20 (24.6) % | Hill Coefficient, theta (RSE%) (CNS7056FEN10S): 4.6 (7.32) | ke0, eta IIV (RSE%) (CNS7056FEN10S): 32.93 (16.2) % | ke0, theta (RSE%) (CNS7056FEN10S): 12.5 (5.00) h^-1 | Conc.-EQ. (fentanyl concentration-equivalence factor), theta (RSE%) (CNS7056FEN11S): 33.2 (8.37) | EC50, eta IIV (RSE%) (CNS7056FEN11S): 33.77 (15.7) % | EC50, theta (RSE%) (CNS7056FEN11S): 0.328 (4.26) µg/ml | Hill Coefficient, eta IIV (RSE%) (CNS7056FEN11S): 54.61 (24.3) % | Hill Coefficient, theta (RSE%) (CNS7056FEN11S): 4.41 (7.30) | ke0, eta IIV (RSE%) (CNS7056FEN11S): 28.95 (15.8) % | ke0, theta (RSE%) (CNS7056FEN11S): 12.9 (4.20) h^-1 | EC50, eta IIV (RSE%) (CNS7056FEN12S): 36.17 (16.3) % | Hill Coefficient (γ), eta IIV (RSE%) (CNS7056FEN12S): 49.35 (21.9) % | ke0, eta IIV (RSE%) (CNS7056FEN12S): 29.25 (15.2) % | EC50, theta (RSE%) [3]: 0.323 (4.42) µg/ml | Hill Coefficient (γ), theta (RSE%) [3]: 4.11 (6.54) | ke0, theta (RSE%) [3]: 14.1 (4.19) h^-1 | EC50, eta IIV (RSE%) (CNS7056FEN13S): 35.07 (16.1) % | Hill Coefficient (γ), eta IIV (RSE%) (CNS7056FEN13S): 54.25 (23.7) % | ke0, eta IIV (RSE%) (CNS7056FEN13S): 30.47 (15.9) % | EC50, theta (RSE%) [4]: 0.321 (4.33) µg/ml | Hill Coefficient (γ), theta (RSE%) [4]: 4.18 (7.03) | ke0, theta (RSE%) [4]: 13.9 (4.51) h^-1 | Conc.-EQ. (fentanyl concentration-equivalence factor), theta (RSE%) (CNS7056FEN14S): 30.3 (28.8) | Conc.-EQ., eta IIV (RSE%) (CNS7056FEN14S): 200.0 (78.2) | EC50, eta IIV (RSE%) (CNS7056FEN14S): 33.93 (6.97) % | EC50, theta (RSE%) (CNS7056FEN14S): 0.331 (2.35) µg/ml | Hill Coefficient, eta IIV (RSE%) (CNS7056FEN14S): 57.88 (15.0) % | Hill Coefficient, theta (RSE%) (CNS7056FEN14S): 4.64 (2.15) | ke0, eta IIV (RSE%) (CNS7056FEN14S): 32.76 (8.85) % | ke0, theta (RSE%) (CNS7056FEN14S): 12.4 (1.52) h^-1 | Conc.-EQ. (fentanyl concentration-equivalence factor), theta (RSE%) (CNS7056FEN18S): 38.3 (7.72) | EC50, eta IIV (RSE%) (CNS7056FEN18S): 34.91 (15.3) % | EC50, theta (RSE%) (CNS7056FEN18S): 0.331 (4.44) µg/ml | Hill Coefficient, eta IIV (RSE%) (CNS7056FEN18S): 56.49 (23.3) % | Hill Coefficient, theta (RSE%) (CNS7056FEN18S): 4.56 (7.12) | ke0, eta IIV (RSE%) (CNS7056FEN18S): 29.13 (15.0) % | ke0, theta (RSE%) (CNS7056FEN18S): 12.9 (3.89) h^-1 | Conc.-EQ. (fentanyl concentration-equivalence factor), theta (RSE%) (CNS7056FEN19S): 28.2 (30.6) | Conc.-EQ., eta IIV (RSE%) (CNS7056FEN19S): 214.1 (113.00) | EC50, eta IIV (RSE%) (CNS7056FEN19S): 35.23 (14.1) % | EC50, theta (RSE%) (CNS7056FEN19S): 0.333 (4.71) µg/ml | Hill Coefficient, eta IIV (RSE%) (CNS7056FEN19S): 59.03 (25.8) % | Hill Coefficient, theta (RSE%) (CNS7056FEN19S): 4.69 (6.09) | ke0, eta IIV (RSE%) (CNS7056FEN19S): 34.09 (15.5) % | ke0, theta (RSE%) (CNS7056FEN19S): 12.6 (4.36) h^-1 | Fentanyl concentration-equivalence, eta IIV (RSE%) (CNS7056FEN26S): 192.6 (59.3) | Hill Coefficient, eta IIV (RSE%) (CNS7056FEN26S): 77.04 (20.4) | ke0, theta (RSE%) (CNS7056FEN26S): 12.1 (0.91) h^-1 | EC50, theta (RSE%) (CNS7056FEN26S, zero scores changed to -1.30): 0.380 (0.94) µg/ml | EMAX, fitted theta (RSE%) (CNS7056FEN31S): 4.84 (0.15) | EMIN, fitted theta (RSE%) (CNS7056FEN31S): -1.57 (2.99) | Fentanyl concentration-equivalence, theta (RSE%) (CNS7056FEN31S): 40.1 (6.28) | Hill Coefficient, eta IIV (RSE%) (CNS7056FEN31S): 75.07 (23.0) | Hill Coefficient, theta (RSE%) (CNS7056FEN31S): 5.04 (4.12) | ke0, theta (RSE%) (CNS7056FEN31S): 12.2 (1.01) h^-1 | EC50, theta (RSE%) (CNS7056FEN31S, zero scores changed to -1.30): 0.378 (1.51) µg/ml
